{"source": "ChEMBL document CHEMBL1821631", "about": "“A novel binding assay identifies high affinity ligands to the rosiglitazone binding site of mitoNEET” (Bioorg Med Chem Lett, 2011)"}
{"target": "T1, CDGSH iron-sulfur domain-containing protein 1 (Homo sapiens, UniProt Q9NZ45)", "T1 sequence (Q9NZ45 whole entry)": "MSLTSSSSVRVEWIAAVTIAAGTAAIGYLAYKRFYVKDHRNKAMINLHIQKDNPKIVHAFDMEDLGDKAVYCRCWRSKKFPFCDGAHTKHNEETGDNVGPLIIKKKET", "assay": "Displacement of [3H]-rosiglitazone from human recombinant C-terminal His-tagged cytosolic domain of mitoNEET (32-108) by scintillation proximity assay", "units": {"IC50": "µM"}}
{"compound": "O=C1NC(=O)/C(=C\\c2ccncc2)S1", "IC50": 22.3}
{"compound": "CCCN1C(=O)S/C(=C/c2ccncc2)C1=O", "IC50": 19.4}
{"compound": "CN1C(=O)/C(=C\\c2ccccc2)SC1=S", "IC50": 15.1}
{"compound": "CN1C(=O)/C(=C\\c2ccc(Cl)cc2)SC1=S", "IC50": 4.98}
{"compound": "O=C1NC(=O)/C(=C\\c2cccc(Br)c2)S1", "IC50": 0.86}
{"compound": "O=C(O)CCN1C(=O)/C(=C\\c2ccccc2)SC1=S", "IC50": 9.63}
